Inhibition data for 26 compounds are collected here from PubChem BioAssay AID485317 (Broad Institute, 2010).

Amino acid sequences for entries named in this document (tags omitted).
UniProt P55789, whole entry: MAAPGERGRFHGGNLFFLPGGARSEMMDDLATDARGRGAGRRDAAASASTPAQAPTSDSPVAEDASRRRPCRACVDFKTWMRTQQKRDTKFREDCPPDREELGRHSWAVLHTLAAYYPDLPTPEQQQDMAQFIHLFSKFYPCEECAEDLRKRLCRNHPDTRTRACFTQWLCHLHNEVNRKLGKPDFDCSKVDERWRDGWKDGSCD

The list shows a part of the results, in another mix than the full data. The source made the active and inactive calls.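 How the source made its calls: active means mean replicate inhibition above about 79%, with every replicate also reaching it (limit read from the data); inconclusive means only one of the two criteria met; inactive means mean below limit and not every replicate reaching it.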

The target of the assay is FAD-linked sulfhydryl oxidase ALR (Homo sapiens) (UniProt P55789). In words: inhibitors of human ALR sulfhydryl oxidase, primary screen, biochemical, H2O2 detection, HRP-luminol luminescence, single point (AID 485317). To be noted: purified ALR, DTT oxidation, hits give high values, concentration not given here.
Broadly, the inhibition is the relative decrease from the control value, in per cent. For `CCOC(=O)c1ccc(NP(C)(=O)Oc2cc(C)cc(C)c2)cc1` (stereo unspecified), the inhibition is inactive: -13.1%.

On to `O=C(OC1CN2CCC1CC2)c1ccc(Cl)cc1` (stereo unspecified), for which the inhibition is inactive: 7.68%.

As to `COc1cc(C(=O)NCC2(N3CCOCC3)CCCCC2)cc(Cl)c1OC(C)C`, the inhibition is inactive: -0.575%.

With `O=[As](O)(O)c1cccnc1`, the inhibition was inactive: 0.27%.

As to `COc1ccccc1OP(C)(=O)Nc1cccc(Br)c1` (stereo unspecified), the inhibition was inactive: -1.59%.

In the case of `CS(=O)(=O)c1ccc(Cl)c(NC(=O)COC(=O)C(O)(c2ccccc2)c2ccccc2)c1`, the inhibition is inactive: 2.96%.

In the case of `CCOP(=O)(Nc1cccc2ccccc12)OCC`, the inhibition was inactive: -24.3%.

As to `CP(=O)(Nc1cccc(Br)c1)Oc1ccccc1` (stereo unspecified), the inhibition is inactive: -6.3%.

Take `Cc1cc(C)cc(OP(C)(=O)Nc2ccccn2)c1` (stereo unspecified): the inhibition is inactive: -5%.

Take `Cc1ccc(NCCc2c([N+](=O)[O-])cc([N+](=O)[O-])cc2[N+](=O)[O-])cc1`: the inhibition was inactive: -4.7%.

On to `Nc1cccc2c([As](=O)(O)O)cccc12`, for which the inhibition is inactive: 17.2%.

In the case of `Cc1ccc(C)c(NP(C)(=O)Oc2ccccc2)c1` (stereo unspecified), the inhibition was inactive: 1.12%.

For `Clc1n[nH]nc1-c1nn[nH][15n]1`, the inhibition was inactive: -13.1%.

For `CC(C)(C)C(=O)NC(Sc1ncccn1)C(Cl)(Cl)Cl` (stereo unspecified), the inhibition is inactive: 6.74%.

Consider `CCC1=CC2Cc3nc4ccc(Cl)cc4c(N)c3C(C1)C2` (stereo unspecified), for which the inhibition was inactive: -12.5%.

For `CCOP(=O)(NC(=NC(C)c1ccccc1)NC(C)c1ccccc1)OCC` (stereo unspecified), the inhibition is inactive: -10.6%.

For the compound `O=[N+]([O-])c1cc([N+](=O)[O-])c(-n2nnc3ccccc32)c([N+](=O)[O-])c1`, the inhibition was inactive: -3.35%.

`CN(CCCl)Cc1cc(Cl)c(NC2=NCCN2)c(Cl)c1`: the inhibition was inactive: 1.95%.

In the case of `CCOP(=O)(Nc1ccc(C)cn1)OCC`, the inhibition was inactive: -5.54%.

Take `O=[As](O)(c1ccccc1Br)c1ccccc1Br`: the inhibition is inactive: 7.94%.

For `CC1(CBr)Cn2c(nc3ccccc3c2=O)S1` (stereo unspecified), the inhibition was inactive: -12.1%.

With `Cc1nc2ccc3ccccc3c2s1.O=[N+]([O-])c1cc([N+](=O)[O-])c(O)c([N+](=O)[O-])c1`, the inhibition was inactive: -7.41%.

As for `O=[N+]([O-])c1cc([N+](=O)[O-])c(-c2cnn(-c3ccccc3)c2)c([N+](=O)[O-])c1`, the inhibition was inactive: -63.8%.

Turning to `COc1ccccc1CNC(=O)COC(=O)C(O)(c1ccccc1)c1ccccc1`, the inhibition was inactive: -4.38%.

For the compound `O=[N+]([O-])c1cc([N+](=O)[O-])c(Nc2nnnn2CCO)c([N+](=O)[O-])c1`, the inhibition was inactive: -12.6%.

Take `CCOC(=O)C(CC)C1=NC(C)(C)Cc2ccccc21.O=[N+]([O-])c1cc([N+](=O)[O-])c(O)c([N+](=O)[O-])c1` (stereo unspecified): the inhibition is inactive: -2.91%.
